Data taken from patent US20210102215A1, “TREATMENT AND PREVENTION OF VIRAL INFECTION” (priority 2016, published 2021).

Test system: HCVpp
Type: cell-based, hepatitis C virus
Details: Huh-7, drug 16 h at a range of concentrations before HCVpp (FIG. 3b)

SMILES | HCV infection of naive cells (HCVpp infectivity)
CC(C)(C)OC(=O)CN(Cc1ccc(Cl)cc1)Cc1ccc([N+](=O)[O-])s1 [GSK4112] | protect naïve cells from HCV infection in a dose-dependent manner
CCOC(=O)N1CCC(CN(Cc2ccc(Cl)cc2)Cc2ccc([N+](=O)[O-])s2)C1 (centres unmarked) [SR9009] | protect naïve cells from HCV infection in a dose-dependent manner
